{"source": "paper PMC2668526", "about": "(Bioorganic & medicinal chemistry, 2008)", "target": "T1, rat PAM (Rattus norvegicus, UniProt P14925)", "T1 sequence (P14925 36-715 isoform P14925-2 limits assumed)": "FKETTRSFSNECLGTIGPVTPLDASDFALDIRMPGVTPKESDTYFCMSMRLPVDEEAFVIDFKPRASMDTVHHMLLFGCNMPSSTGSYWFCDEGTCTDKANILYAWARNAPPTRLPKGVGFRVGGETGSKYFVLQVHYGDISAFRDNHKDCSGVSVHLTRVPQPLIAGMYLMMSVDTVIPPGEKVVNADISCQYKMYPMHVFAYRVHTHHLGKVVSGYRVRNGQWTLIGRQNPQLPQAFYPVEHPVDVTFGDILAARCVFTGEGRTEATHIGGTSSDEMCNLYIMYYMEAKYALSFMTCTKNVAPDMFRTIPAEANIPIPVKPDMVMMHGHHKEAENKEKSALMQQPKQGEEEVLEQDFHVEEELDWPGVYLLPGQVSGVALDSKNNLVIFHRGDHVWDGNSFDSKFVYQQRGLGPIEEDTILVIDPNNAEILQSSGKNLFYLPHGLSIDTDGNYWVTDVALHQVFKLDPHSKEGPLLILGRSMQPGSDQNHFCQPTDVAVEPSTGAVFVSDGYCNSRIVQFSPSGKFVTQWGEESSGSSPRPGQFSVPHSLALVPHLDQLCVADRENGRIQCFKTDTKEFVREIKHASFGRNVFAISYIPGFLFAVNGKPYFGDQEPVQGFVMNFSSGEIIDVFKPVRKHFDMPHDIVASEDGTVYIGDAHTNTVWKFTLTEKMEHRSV", "experiment": "Bifunctional rat PAM inhibition", "format": "biochemical", "settings": "Ki,s, absence of DMSO, competitive inhibition assumed"}
{"smiles": "CCOC(=O)CNC(=O)[C@H](CS)NC(=O)CC[C@H](N)C(=O)O", "note": "[compound 67, Glutathione Ethyl Ester]", "values": [{"measurement": "Ki", "result": "66 ± 8", "unit": "µM"}]}
{"smiles": "O=C(O)CCC(=O)c1ccccc1", "note": "[compound 77, 3-Benzoylpropionic acid]", "values": [{"measurement": "Ki", "result": 2900, "unit": "µM"}]}
